From PubChem BioAssay AID748 (Sanford-Burnham Center for Chemical Genomics, 2007)
This is a selection; strong and weak results do not stand in their true shares. Potency and affinity values are given separately. The source made the active and inactive calls.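 Rule for the calls: active = displacement above 50% at 20 µM plus a fluorescence interference ratio under 1.5; inactive = the rest.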

The molecules below were run against Bcl-2-like protein 10 (Homo sapiens) (UniProt Q9HD36) (assay: Bcl-B/TR3 peptide binding disruption – biochemical, fluorescence polarization, FITC-TR3 peptide, selectivity assay for Bfl-1 inhibitor project, primary screen (AID 748;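 note: plate controls were wells without compound for no effect and wells lacking Bcl-B protein for full effect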)). Conditions: FP displacement of FITC-TR3 peptide from Bcl-B; at 20 µM; active compounds read high.

| Structure (SMILES) | displacement |
| --- | --- |
| CP(=S)(Nn1cnnc1)Oc1ccccc1 (configuration not stated) | inactive: 1.8% |
| CP(=O)(Nc1ccccn1)Oc1ccc(Cl)cc1 (configuration not stated) | inactive: -2.3% |
| CCOP(C)(=S)SCC(=O)NC(C)C(=O)O (configuration not stated) | inactive: -4.2% |
| CP(=O)(NC(=O)Nc1ccccc1)Oc1ccccc1 (configuration not stated) | inactive: 10.5% |
| COc1ccc(OP(C)(=O)Nc2cccc(F)c2)cc1 (configuration not stated) | inactive: -12.4% |
| COc1ccccc1OP(C)(=O)Nc1ccc(C)cc1 (configuration not stated) | inactive: -1.2% |
| Cc1ccc(NP(C)(=O)Oc2ccccc2)c(C)c1 (configuration not stated) | inactive: -1.5% |
| Cc1cc(C)cc(OP(C)(=O)Nc2ccccn2)c1 (configuration not stated) | inactive: -3.8% |
| Cc1ccc(C)c(NP(C)(=O)Oc2ccccc2)c1 (configuration not stated) | inactive: -7.1% |
| Cc1cc(C)cc(OP(C)(=O)Nc2ccc(C)cc2C)c1 (configuration not stated) | inactive: -16.2% |
| Cc1nc2ccc3ccccc3c2s1.O=[N+]([O-])c1cc([N+](=O)[O-])c(O)c([N+](=O)[O-])c1 | inactive: -7.2% |
| COc1ccccc1OP(C)(=O)Nc1c(C)cccc1C (configuration not stated) | inactive: -6.6% |
| CN(C)CCOC(=O)C(O)(c1ccccc1)C1CCCCC1 (configuration not stated) | inactive: 3.8% |
| COc1ccc(OP(C)(=O)Nc2cccc(Br)c2)cc1 (configuration not stated) | inactive: -9.9% |
| Cc1ccccc1NP(C)(=O)Nc1ccccc1C | inactive: -0.4% |
| CCOP(C)(=S)SCC(=O)NC(C)(CC)C(=O)O (configuration not stated) | inactive: -0.8% |

| Structure (SMILES) | displacement |
| --- | --- |
| CP(=O)(Nc1ccccc1F)Oc1ccccc1 (configuration not stated) | inactive: -0.9% |
| CP(=O)(Nc1ccccc1)Oc1ccc(F)cc1 (configuration not stated) | inactive: 2% |
| Cc1nc2ccc3ccccc3c2o1.O=[N+]([O-])c1cc([N+](=O)[O-])c(O)c([N+](=O)[O-])c1 | inactive: -1.6% |
| COc1ccccc1OP(C)(=O)Nc1ccc(C)c(C)c1 (configuration not stated) | inactive: 9.9% |
| CCc1ccc(OP(C)(=O)O)cc1 | inactive: -9.8% |
| CP(=O)(Nc1ccccn1)Oc1ccccc1 (configuration not stated) | inactive: -5.4% |
| COc1ccccc1OP(C)(=O)Nc1ccc(C)cc1C (configuration not stated) | inactive: -8.7% |
| Cc1c(NP(C)(=O)Oc2ccc(C(C)C)cc2)c(=O)n(-c2ccccc2)n1C (configuration not stated) | inactive: 0.8% |
| CN(C)CCOC(=O)C(O)(c1ccccc1)C1CCCC1 (configuration not stated) | inactive: 0.2% |
| COc1ccc(OP(C)(=O)Nc2ccccn2)cc1 (configuration not stated) | inactive: -0.6% |
| CP(=O)(Nc1ccc(Cl)cc1)Oc1ccc(F)cc1 (configuration not stated) | inactive: -7% |
| CC(C)(C)c1ccc(OP(C)(=O)O)cc1 | inactive: 2.6% |
| CP(=O)(Oc1ccccc1)N1CCOC1=O (configuration not stated) | inactive: 0.1% |
| COc1ccccc1OP(C)(=O)Nc1c(C)n(C)n(-c2ccccc2)c1=O (configuration not stated) | inactive: -3.2% |
| CCN(CC)CC(O)COC(=O)C(O)(c1ccccc1)C1CCCCC1 (configuration not stated) | inactive: -7.5% |
| CP(=O)(OC12CC3CC(CC(C3)C1)C2)OC12CC3CC(CC(C3)C1)C2 | inactive: -3% |
